Reference: the NIST ThermoML archive (doi:10.1016/j.jct.2011.06.007)
Numbers after ± are expanded uncertainties.

Test: activity coefficient (dimensionless); of the first substance listed, at infinite dilution; xn = mol fraction of the nth substance listed
Conditions: 101 kPa, Liquid, Chromatography, x1 = 0

What does the source list for `CCCCOCCCC` [dibutyl ether] + CCCC[N+]1(C)CCCC1.N#C[B-](C#N)(C#N)C#N?
activity coefficient (318.15 K): 11.6 ± 0.8; activity coefficient (328.15 K): 10.9 ± 0.7; activity coefficient (338.15 K): 10.6 ± 0.7; activity coefficient (348.15 K): 10.2 ± 0.7; activity coefficient (358.15 K): 9.7 ± 0.7; activity coefficient (368.15 K): 8.41 ± 0.57
